Test results from patent publication US8772480B2, “Inhibitors of PI3 kinase and/or mTOR” (priority 2009, dated 2014).

Target: mammalian target of rapamycin (mTOR) (Homo sapiens (Human), UniProt P42345)
Details: read-out: mTOR IC50

Cc1cncc(Nc2ncccc2-c2nc(C)nc(N)n2)c1 [Example 174, 4-Methyl-6-(2-(5-Methylpyridin-3-Ylamino)Pyridin-3-yl)-1,3,5-Triazin-2-Amine] was tested. Which IC50 did it give?
Its IC50 is greater than 10 µM.

COc1ncc(Nc2nc(-c3ccncc3)ccc2-c2nc(C)nc(N)n2)cc1F [Example 175, 5-(4-Amino-6-Methyl-1,3,5-Triazin-2-yl)-N-(5-Fluoro-6-Methoxypyridin-3-yl)-2,4′-Bipyridin-6-Amine] was tested. Which IC50 did it give?
Its IC50 is greater than 10 µM.

Which IC50 does the source give for COc1ncc(Nc2ncc(C(=O)N3CCC(O)CC3)cc2-c2nc(C)nc(N)n2)cc1F [Example 176, (5-(4-amino-6-methyl-1,3,5-triazin-2-yl)-6-(5-fluoro-6-methoxypyridin-3-ylamino)pyridin-3-yl)(4-hydroxypiperidin-1-yl)methanone] here?
The IC50 was greater than 10 µM.

COc1ccc(Nc2ncc(CN3CCN(S(C)(=O)=O)CC3)cc2-c2cc(N)nc(C)n2)cn1 [Example 178, 6-(2-(6-Methoxypyridin-3-Ylamino)-5-((4-(Methylsulfonyl)Piperazin-1-yl)Methyl)Pyridin-3-yl)-2-Methylpyrimidin-4-Amine] was tested. Which IC50 did it give?
The IC50 was greater than 10 µM.

Which IC50 does the source give for COc1ccc(Nc2ncc(CO)cc2-c2nc(C)nc(N)n2)cn1 [Example 179, (5-(4-Amino-6-Methyl-1,3,5-Triazin-2-yl)-6-(6-Methoxypyridin-3-Ylamino)Pyridin-3-yl)Methanol] here?
Its IC50 is 2.48 µM.

With Cc1nc(N)cc(-c2nc3ccccc3nc2Nc2cccc3[nH]ncc23)n1 [Example 180, 3-(6-Amino-2-Methylpyrimidin-4-yl)-N-(1H-Indazol-4-yl)Quinoxalin-2-Amine] as the molecule, how does the IC50 read?
Its IC50 is greater than 10 µM.

With CC(=O)Nc1ccc(Nc2ncccc2-c2nc(C)nc3[nH]cnc23)cc1Cl [Example 181, N-(2-Chloro-4-(3-(2-Methyl-9H-Purin-6-yl)Pyridin-2-Ylamino)Phenyl)Acetamide] as the molecule, how does the IC50 read?
The IC50 was greater than 10 µM.

How did the IC50 turn out when Cc1nc(-c2cccnc2Nc2ccc(NC(=O)C3CC3)cc2)c2nc[nH]c2n1 [Example 182, N-(4-(3-(2-Methyl-9H-Purin-6-yl)Pyridin-2-Ylamino)Phenyl)Cyclopropanecarboxamide] was run?
The IC50 was 0.05 µM.

How did the IC50 turn out when COc1cncc(Nc2ncccc2-c2nc(C)nc3[nH]cnc23)c1 [Example 183, N-(5-Methoxypyridin-3-yl)-3-(2-Methyl-9H-Purin-6-yl)Pyridin-2-Amine] was run?
The IC50 was greater than 10 µM.

For COc1ccc(Nc2ncc(Cl)cc2-c2nc(C)nc(N)n2)cn1 [Example 184, 4-(5-Chloro-2-(6-Methoxypyridin-3-Ylamino)Pyridin-3-yl)-6-Methyl-1,3,5-Triazin-2-Amine], which IC50 is on record?
The IC50 was greater than 10 µM.

COc1ncc(Nc2ncc(F)cc2-c2nc(C)nc(N)n2)cc1F [Example 185, 4-(5-Fluoro-2-(5-Fluoro-6-Methoxypyridin-3-Ylamino)Pyridin-3-yl)-6-Methyl-1,3,5-Triazin-2-Amine] was tested. Which IC50 did it give?
The IC50 was greater than 10 µM.

How did the IC50 turn out when Cc1nc(N)nc(-c2cc(F)cnc2Nc2cncc(F)c2)n1 [Example 186, 4-(5-Fluoro-2-(5-Fluoropyridin-3-Ylamino)Pyridin-3-yl)-6-Methyl-1,3,5-Triazin-2-Amine] was run?
The IC50 was greater than 10 µM.

How did the IC50 turn out when COc1ncc(Nc2ncc(C=O)cc2-c2nc(C)nc(N)n2)cc1F [Example 187, 5-(4-Amino-6-Methyl-1,3,5-Triazin-2-yl)-6-(5-Fluoro-6-Methoxypyridin-3-Ylamino)Nicotinaldehyde] was run?
The IC50 was greater than 10 µM.

Which IC50 does the source give for Cc1nc(N)nc(-c2cc(Cl)cnc2NC2CCOCC2)n1 [Example 188, 4-(5-Chloro-2-(Tetrahydro-2H-Pyran-4-Ylamino)Pyridin-3-yl)-6-Methyl-1,3,5-Triazin-2-Amine] here?
Its IC50 is greater than 10 µM.

For COCCNc1nc(C)nc(-c2cc(Cl)cnc2Nc2cnc(OC)c(F)c2)n1 [Example 189, 4-(5-Chloro-2-(5-Fluoro-6-Methoxypyridin-3-Ylamino)Pyridin-3-yl)-N-(2-Methoxyethyl)-6-Methyl-1,3,5-Triazin-2-Amine], which IC50 is on record?
Its IC50 is greater than 10 µM.

Which IC50 does the source give for Cc1nc(N)nc(-c2cccnc2Nc2ccc(NC(=O)Nc3cccc(F)c3)nc2)n1 [Example 191, 1-(5-(3-(4-Amino-6-Methyl-1,3,5-Triazin-2-yl)Pyridin-2-Ylamino)Pyridin-2-yl)-3-(3-Fluorophenyl)Urea] here?
Its IC50 is greater than 10 µM.

Cc1nc(N)nc(-c2cccnc2Nc2ccc(NC(=O)NC(C)C)nc2)n1 [Example 192, 1-(5-(3-(4-Amino-6-Methyl-1,3,5-Triazin-2-yl)Pyridin-2-Ylamino)Pyridin-2-yl)-3-Isopropylurea] was tested. Which IC50 did it give?
The IC50 was greater than 10 µM.

CC(=O)Nc1ccc(Nc2ncc(Cl)cc2-c2nc(C)nc(N)n2)cn1 [Example 193, N-(5-(3-(4-Amino-6-Methyl-1,3,5-Triazin-2-yl)-5-Chloropyridin-2-Ylamino)Pyridin-2-yl)Acetamide] was tested. Which IC50 did it give?
Its IC50 is greater than 10 µM.

Which IC50 does the source give for COC(=O)Nc1ccc(Nc2ncc(Cl)cc2-c2nc(C)nc(N)n2)cn1 [Example 194, Methyl 5-(3-(4-Amino-6-Methyl-1,3,5-Triazin-2-yl)-5-Chloropyridin-2-Ylamino)Pyridin-2-Ylcarbamate] here?
Its IC50 is greater than 10 µM.

For COCCOc1ccc(NC(=O)Nc2ccc(Nc3ncc(Cl)cc3-c3nc(C)nc(N)n3)cn2)cc1 [Example 195, 1-(5-(3-(4-Amino-6-Methyl-1,3,5-Triazin-2-yl)-5-Chloropyridin-2-Ylamino)Pyridin-2-yl)-3-(4-(2-Methoxyethoxy)Phenyl)Urea], which IC50 is on record?
The IC50 was greater than 10 µM.

CC(=O)Nc1ccc(Nc2ncc(CN3CCN(S(C)(=O)=O)CC3)cc2-c2nc(C)nc(N)n2)cn1 [Example 196, N-(5-(3-(4-Amino-6-Methyl-1,3,5-Triazin-2-yl)-5-((4-(Methylsulfonyl)Piperazin-1-yl)Methyl)Pyridin-2-Ylamino)Pyridin-2-yl)Acetamide] was tested. Which IC50 did it give?
The IC50 was 1.11 µM.

COc1ncc(Nc2nc(C)ccc2-c2nc(C)nc(N)n2)cc1F [Example 197, 4-(2-(5-Fluoro-6-Methoxypyridin-3-Ylamino)-6-Methylpyridin-3-yl)-6-Methyl-1,3,5-Triazin-2-Amine] was tested. Which IC50 did it give?
The IC50 was greater than 10 µM.

How did the IC50 turn out when COc1ncc(Nc2nc(CN3CCOCC3)ccc2-c2nc(C)nc(N)n2)cc1F [Example 198, 4-(2-(5-Fluoro-6-Methoxypyridin-3-Ylamino)-6-(Morpholinomethyl)Pyridin-3-yl)-6-Methyl-1,3,5-Triazin-2-Amine] was run?
The IC50 was greater than 10 µM.

Which IC50 does the source give for COc1ncc(Nc2nc(COCC(F)(F)F)ccc2-c2nc(C)nc(N)n2)cc1F [Example 199, 4-(2-(5-Fluoro-6-Methoxypyridin-3-Ylamino)-6-((2,2,2-Trifluoroethoxy)Methyl)Pyridin-3-yl)-6-Methyl-1,3,5-Triazin-2-Amine] here?
The IC50 was greater than 10 µM.

Cc1ccc(-c2nc(C)nc(N)n2)c(Nc2cncc(F)c2)n1 [Example 200, 4-(2-(5-Fluoropyridin-3-Ylamino)-6-Methylpyridin-3-yl)-6-Methyl-1,3,5-Triazin-2-Amine] was tested. Which IC50 did it give?
The IC50 was greater than 10 µM.

With COc1ccc(Nc2ncc(CN3CCSCC3)cc2-c2nc(C)nc(N)n2)cn1 [Example 201, 4-(2-(6-Methoxypyridin-3-Ylamino)-5-(Thiomorpholinomethyl)Pyridin-3-yl)-6-Methyl-1,3,5-Triazin-2-Amine] as the molecule, how does the IC50 read?
The IC50 was greater than 10 µM.

COc1ccc(Nc2ncc(CN3CC[S+]([O-])CC3)cc2-c2nc(C)nc(N)n2)cn1 [Example 202, 4-(2-(6-Methoxypyridin-3-Ylamino)-5-(1-Sulfoxidemorpholinomethyl)Pyridin-3-yl)-6-Methyl-1,3,5-Triazin-2-Amine] was tested. Which IC50 did it give?
Its IC50 is greater than 10 µM.
